Earlier results in patent US4161598A, “1-Oxygenated-2,6-methano-3-benzazocines” (Sterling Drug Inc., priority 1977, dated 1979).

Conditions: as the hydrochloride salt; Ziering reference; cited from earlier work

With COc1ccc2c(c1)[C@]1(C)CCN(C)[C@H](C2=O)[C@@H]1C (relative stereo) [Compound 12] as the compound, how does the “activity in analgesic, anti-inflammatory and antiedema, and morphine antagonist tests” value read?
Its value is “inactive in all tests except the morphine antagonist test in the mouse”.
